Assay results reported in ChEMBL document CHEMBL1123639, “Nitrogen-bridged conformationally constrained etorphine analogues. Synthesis and biological evaluation” (1987).

Species: Rattus norvegicus
Assay: The compound was tested for relative analgesic potency with respect to the potency of morphine

## CN1CC[C@]23c4c5ccc(O)c4O[C@H]2[C@@H](O)C=C[C@H]3[C@H]1C5
  Relative potency: 1
